Earlier results, collected in patent publication US20250295728A1 (UCB Biopharma SRL, priority 2022, published 2025).

Key:
[1] = system: AChR autoantibody-positive patients with refractory gMG
[2] = system: AChR autoantibody-positive patients
[3] = REGAIN and open-label extension

B1: eculizumab (antibody, chains of the INN, looked up)
heavy: QVQLVQSGAEVKKPGASVKVSCKASGYIFSNYWIQWVRQAPGQGLEWMGEILPGSGSTEYTENFKDRVTMTRDTSTSTVYMELSSLRSEDTAVYYCARYFFGSSPNWYFDVWGQGTLVTVSSASTKGPSVFPLAPCSRSTSESTAALGCLVKDYFPEPVTVSWNSGALTSGVHTFPAVLQSSGLYSLSSVVTVPSSNFGTQTYTCNVDHKPSNTKVDKTVERKCCVECPPCPAPPVAGPSVFLFPPKPKDTLMISRTPEVTCVVVDVSQEDPEVQFNWYVDGVEVHNAKTKPREEQFNSTYRVVSVLTVLHQDWLNGKEYKCKVSNKGLPSSIEKTISKAKGQPREPQVYTLPPSQEEMTKNQVSLTCLVKGFYPSDIAVEWESNGQPENNYKTTPPVLDSDGSFFLYSRLTVDKSRWQEGNVFSCSVMHEALHNHYTQKSLSLSLG
light: DIQMTQSPSSLSASVGDRVTITCGASENIYGALNWYQQKPGKAPKLLIYGATNLADGVPSRFSGSGSGTDFTLTISSLQPEDFATYYCQNVLNTPLTFGQGTKVEIKRTVAAPSVFIFPPSDEQLKSGTASVVCLLNNFYPREAKVQWKVDNALQSGNSQESVTEQDSKDSTYSLSSTLTLSKADYEKHKVYACEVTHQGLSSPVTKSFNRGEC
In the case of B1, the “time to impact on QMG score after initiating treatment” value ([1]; in vivo) is listed as ≤ 1 week, the “responders achieving an 8-point reduction in QMG score” value ([1]; initial 16-week treatment period) is listed as 4 patients and the “patients achieving a ≥3-point improvement in QMG score” value ([1]; initial 16-week treatment period, IV infusion) is listed as 6 out of 7. For the same molecule, the “secondary endpoint: change from baseline in QMG score” value ([2]; 26-week treatment period, p=0.0129) was “statistically significant results were observed”, the “primary endpoint: change from baseline in MG-ADL relative to placebo” value ([2]; 26-week treatment period, p=0.0698) was “not associated with a statistically significant benefit relative to placebo” and the “MG-ADL late responders (response between Week 12 and end of OLE)” value [2, 3] was 17%. For the same molecule, the MG-ADL non responders [2, 3] was 15%, the “QMG late responders (response between Week 12 and end of OLE)” value [2, 3] was 15% and the QMG non responders [2, 3] was 29%.
